According to patent US20220088011A1, “THERAPEUTIC AGENT FOR A TUMOR COMPRISING AN IDO INHIBITOR ADMINISTERED IN COMBINATION WITH AN ANTIBODY” (KYOWA KIRIN CO., LTD., priority 2015, published 2022):

Experiments:
SK-BR-3 cells = assay: ADCC of trastuzumab against SK-BR-3 cells by human PBMCs pre-incubated in conditioned medium; type: cell-based; settings: PBMCs pre-incubated in conditioned medium 2 (KATO-III + IFN-γ)
Method: (§1) KATO-III cells (1.25×10^6 cells) were treated with 25 ng/mL recombinant human IFN-γ. […] Three days later, cells and supernatants were separated by centrifugation. The supernatants were used as conditioned medium. The conditioned medium was used for incubation of human PBMCs or NK cells (section 2.4.2), and measurement of Kyn and Trp (section 2.4.4).
(§2) NK cells were isolated from human PBMCs using NK isolation kit (Miltenyi Biotec, Cat. No. 130-092-657) and autoMACS instrument. Human PBMCs or NK cells were cultured in the conditioned medium (section 2.4.1) in a CO2 incubator. After 7 days, cells were harvested and counted, and used as effector cells. […] The radioactivity was counted with a microplate scintillation counter (TopCount NXT, PerkinElmer).
(§3) The percentage of cytotoxicity was calculated according to the following formula: […]
(§4) E is the experimental released radioactivity (cpm), S is the mean of spontaneous released radioactivity (cpm) by adding the assay medium instead of effector cells and antibody, and M is the mean of maximum released radioactivity (cpm) by adding 10 vol % Triton™ X-100 (Sigma-Aldrich, Cat. No. T9284-100ML) instead of effector cells and antibody. […]

A431 cells = assay: ADCC of cetuximab against A431 cells by human PBMCs pre-incubated in conditioned medium; type: cell-based; settings: PBMCs pre-incubated in conditioned medium 2 (KATO-III + IFN-γ)
Method: as §1, §2, §3, §4

**Q.** How did the “ADCC against SK-BR-3 cells” value (SK-BR-3 cells) turn out when “trastuzumab: recombinant humanized anti-HER2 antibody [reference compound]” was run?
**A.** attenuated

**Q.** How did the “ADCC against A431 cells” value (A431 cells) turn out when “cetuximab: monoclonal antibody which binds to EGFR [reference compound]” was run?
**A.** attenuated
